Sequences of proteins named here, by UniProt entry; tags and fusion partners are left off.
UniProt P47989, whole entry, looked up: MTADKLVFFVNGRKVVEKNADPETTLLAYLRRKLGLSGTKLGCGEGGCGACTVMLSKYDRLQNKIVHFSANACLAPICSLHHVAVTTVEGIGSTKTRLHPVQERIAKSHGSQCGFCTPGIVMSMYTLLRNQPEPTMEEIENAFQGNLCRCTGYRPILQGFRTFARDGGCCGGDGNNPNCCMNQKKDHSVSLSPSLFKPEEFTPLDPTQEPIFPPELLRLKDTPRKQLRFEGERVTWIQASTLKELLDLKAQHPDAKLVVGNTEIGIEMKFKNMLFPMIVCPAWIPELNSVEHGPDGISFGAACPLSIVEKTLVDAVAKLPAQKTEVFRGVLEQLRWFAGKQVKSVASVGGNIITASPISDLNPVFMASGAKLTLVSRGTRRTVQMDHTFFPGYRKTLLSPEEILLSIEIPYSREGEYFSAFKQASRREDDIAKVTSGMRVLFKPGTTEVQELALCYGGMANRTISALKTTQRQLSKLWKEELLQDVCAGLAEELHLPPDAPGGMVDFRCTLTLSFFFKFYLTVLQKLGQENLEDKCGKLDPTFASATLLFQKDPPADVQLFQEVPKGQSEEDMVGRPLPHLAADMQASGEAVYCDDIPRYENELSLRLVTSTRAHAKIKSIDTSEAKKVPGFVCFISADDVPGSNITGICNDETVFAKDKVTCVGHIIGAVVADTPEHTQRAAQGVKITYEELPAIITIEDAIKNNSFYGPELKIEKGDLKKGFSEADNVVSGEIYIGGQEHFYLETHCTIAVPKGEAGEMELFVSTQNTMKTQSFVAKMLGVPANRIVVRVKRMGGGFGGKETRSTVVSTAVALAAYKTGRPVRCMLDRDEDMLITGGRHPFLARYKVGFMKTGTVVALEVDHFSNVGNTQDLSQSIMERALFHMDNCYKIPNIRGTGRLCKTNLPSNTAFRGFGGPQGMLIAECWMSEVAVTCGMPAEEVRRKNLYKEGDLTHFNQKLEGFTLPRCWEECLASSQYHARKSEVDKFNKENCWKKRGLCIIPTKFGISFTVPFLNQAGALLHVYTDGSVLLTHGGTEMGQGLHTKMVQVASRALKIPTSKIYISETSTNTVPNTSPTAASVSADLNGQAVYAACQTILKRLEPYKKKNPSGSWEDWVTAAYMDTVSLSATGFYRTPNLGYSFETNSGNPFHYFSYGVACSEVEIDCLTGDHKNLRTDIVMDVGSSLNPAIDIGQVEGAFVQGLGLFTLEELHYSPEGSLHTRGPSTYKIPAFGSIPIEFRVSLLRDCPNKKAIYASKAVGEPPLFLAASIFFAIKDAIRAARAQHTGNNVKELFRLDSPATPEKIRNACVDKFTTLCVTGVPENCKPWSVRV

According to US8017401B2, “Method for determining redox activity and screening compounds based on redox activity” (State of Oregon acting by and through the State Board of …, priority 2005, dated 2011):

Assays:
[1] = molecular target: xanthine-xanthine oxidase reaction (Homo sapiens, UniProt P47989); test: Superoxide measurement in the xanthine-xanthine oxidase reaction; format: biochemical
[2] = Reaction of NBD-Cl with KO2: stopped-flow kinetics, absorbance and fluorescence calibration; format: physicochemical; settings: kinetic stopped-flow analysis, DMSO

## O=[N+]([O-])c1ccc(Cl)c2nonc12
[1]; 15 μM xanthine, 100 nM xanthine oxidase, XTT 600 μM
  effect of the probe on the xanthine-xanthine oxidase reaction rate: slight activating effect
[1]; 15 μM xanthine, 100 nM xanthine oxidase, maximum absorbance 0.048 at 470 nm
  measured amount of superoxide: 12.0 µM
[1]; 50 μM xanthine, 150 nM xanthine oxidase, phosphate buffer pH 7.4, NBD-Cl 100 μM, XTT 600 μM
  Superoxide at 470 nm (initial rate of superoxide formation): 0.127 ± 0.002
[2]
  second-order bimolecular rate constant for the reaction between NBD-Cl and KO2: 1.5±0.3×10^5 M^−1s^−1
